# Test results reported in patent publication US20100055093A1, “PAN-CELL SURFACE RECEPTOR-SPECIFIC THERAPEUTICS” (RECEPTOR BIOLOGIX INC., priority 2006, published 2010).
# Assays:
# A431 cells = experiment: Monolayer cell proliferation, crystal violet; type: cell-based, human
# HT-29 cells = experiment: Monolayer cell proliferation, crystal violet; type: cell-based, human; settings: HT-29, Colon, monolayer culture
# H2122 cells = experiment: Monolayer cell proliferation, crystal violet; type: cell-based; settings: H2122, Lung, monolayer culture
# MDA-MB-468 cells = experiment: Monolayer cell proliferation, crystal violet; type: cell-based; settings: MDA-MB-468, Breast, monolayer culture
# MCF-7 cells = experiment: Monolayer cell proliferation, crystal violet; type: cell-based; settings: MCF-7, Breast, monolayer culture
# Protocol: (§1) Cell proliferation studies were conducted in serum-free medium as indicated. Cells were plated in 96-well tissue culture plates (Falcon #35-3075, Becton Dickinson, N.J.) at 2000 to 6000 cells per well, as appropriate for a cell line, and then grown overnight (15 to 18 hrs). For the cell proliferation studies done in serum containing medium, the cells were then treated with or without compounds and allowed to grow for 3 to 5 days. […] After plating cells in serum, the cells were grown overnight (15 to 20 hrs), then the cells were switched to serum-free medium and grown for 24 to 48 hrs (serum-starvation). […] Cell proliferation was quantified by crystal violet dye method as described previously (Sugarman et al., 1987). Briefly, the culture medium was decanted, the cells washed once with PBS, followed by addition of 50 μl/well 0.5% (w/v) crystal violet dye (Sigma-Aldrich, St Loius, Mo.) in methanol and incubation for 20 min. The plates were washed with water 3-times and then air-dried overnight. The cell-bound dye was eluted with 100 μl/well Sorenson's buffer (25 mM sodium citrate in 50% ethanol) for 15 min on a plate shaker. The plate was then read on a plate reader at 540 nm wavelength for absorbance, which was directly proportional to the amount of cells in the well.
# (§2) Cell proliferation studies were conducted in either serum containing or in serum-free medium as indicated. Cells were plated in 96-well tissue culture plates (Falcon #35-3075, Becton Dickinson, N.J.) at 2000 to 6000 cells per well, as appropriate for a cell line, and then grown overnight (15 to 18 hrs). For the cell proliferation studies done in serum containing medium, the cells were then treated with or without compounds and allowed to grow for 3 to 5 days. For cell proliferation studies done in serum-free growth conditions. After plating cells in serum, the cells were grown overnight (15 to 20 hrs), then the cells were switched to serum-free medium and grown for 24 to 48 hrs (serum-starvation). […] Cell proliferation was quantified by crystal violet dye method as described previously (Sugarman et al., 1987). Briefly, the culture medium was decanted, the cells washed once with PBS, followed by addition of 50 μl/well 0.5% (w/v) crystal violet dye (Sigma-Aldrich, St Loius, Mo.) in methanol and incubation for 20 min. The plates were washed with water 3-times and then air-dried overnight. The cell-bound dye was eluted with 100 μl/well Sorenson's buffer (25 mM sodium citrate in 50% ethanol) for 15 min on a plate shaker. The plate was then read on a plate reader at 540 nm wavelength for absorbance, which was directly proportional to the amount of cells in the well.
# H358 cells = experiment: Monolayer cell proliferation, crystal violet; type: cell-based; settings: H358, Lung, monolayer culture
# Protocol: as §1, §2
# H1437 cells = experiment: Monolayer cell proliferation, crystal violet; type: cell-based; settings: H1437, Lung, monolayer culture
# Protocol: as §1, §2
# BT-474 cells = experiment: Monolayer cell proliferation, crystal violet; type: cell-based; settings: BT-474, Breast, monolayer culture
# Protocol: as §1, §2
# H1975 cells = experiment: Monolayer cell proliferation, crystal violet; type: cell-based; settings: H1975, Lung, monolayer culture
# Protocol: as §1, §2
# T47D cells = experiment: Monolayer cell proliferation, crystal violet; type: cell-based; settings: Breast, monolayer culture
# Protocol: as §1, §2
# Calu-6 cells = experiment: Monolayer cell proliferation, crystal violet; type: cell-based; settings: Calu-6, Lung, monolayer culture
# Protocol: as §1, §2
# SUM149 cells [1] = experiment: Monolayer cell proliferation, crystal violet; type: cell-based; settings: SUM149, Breast, monolayer culture
# Protocol: as §1, §2
# HCC4006 cells = experiment: Monolayer cell proliferation, crystal violet; type: cell-based; settings: HCC4006, Lung, monolayer culture
# Protocol: as §1, §2
# N-87 cells = experiment: Monolayer cell proliferation, crystal violet; type: cell-based, human; settings: N-87, Gastric, monolayer culture
# Protocol: as §1, §2
# SK-BR-3 cells = experiment: Monolayer cell proliferation, crystal violet; type: cell-based, human; settings: SK-BR-3, Breast, monolayer culture
# Protocol: as §1, §2
# ZR-75-1 cells = experiment: Monolayer cell proliferation, crystal violet; type: cell-based, human; settings: ZR-75-1, Breast, monolayer culture
# Protocol: as §1, §2
# A549 cells = experiment: Monolayer cell proliferation, crystal violet; type: cell-based, human; settings: A549, Lung, monolayer culture
# Protocol: as §1, §2
# SUM149 cells [2] = experiment: Growth factor or LPA stimulated cell proliferation in serum-free medium; type: cell-based; settings: SUM 149 cells
# Protocol: as §1
# The cell proliferation was conducted as described in Example 19. […]
# heregulin (HRG) = experiment: 125I-HRG binding with BS3 cross-linking and SDS-PAGE; settings: 5 nM 125I-HRG, BS3 cross-linking, SDS-PAGE
# Protocol: The binding of HER ECD derivatives to heregulin was performed using a similar assay as described for binding to EGF described in part A above. […] 1 mM of the BS3 crosslinker was added at the end of the binding assay to cross-link the bound molecules. Binding reactions were separated on an SDS-PAGE gel. The protein gel was dried and exposed to a film for 2 and 6 hours.
# Binding of radiolabeled EGF to HER1-621/Fc, HER2-650/Fc, HER3-621/Fc, HER4-650/Fc was determined as described above. […] Western blots were probed with anti-His antibody to compare protein levels. […] Radiolabeled HRG binds only to HER3-621/Fc and HER4-650/Fc molecules.
substance,measurement,setting,value
RB200h: heterodimer: full length HER 1 ECD linked to full length HER 3 ECD via Fc domain (HER1-621/Fc and HER3-621/Fc with His tag),RB200 Efficacy (growth inhibition of cells),"A431 cells; A431, Epidermoid, monolayer culture",+++ (+++ = 31 to 50% growth inhibition of cells by RB200)
same,EC50,"A431 cells; A431 epidermoid cancer cells, monolayer, read-out: EC50, inhibition of proliferation",71 nM
same,RB200 Efficacy (growth inhibition of cells),HT-29 cells,− (− = <10%)
same,RB200 Efficacy (growth inhibition of cells),H2122 cells,− (− = <10%)
same,RB200 Efficacy (growth inhibition of cells),MDA-MB-468 cells,++ (++ = 21 to 30%)
same,RB200 Efficacy (growth inhibition of cells),MCF-7 cells,− (− = <10%)
same,RB200 Efficacy (growth inhibition of cells),H358 cells,− (− = <10%)
same,RB200 Efficacy (growth inhibition of cells),H1437 cells,+++ (+++ = 31 to 50% growth inhibition of cells by RB200)
same,RB200 Efficacy (growth inhibition of cells),BT-474 cells,++ (++ = 21 to 30%)
same,RB200 Efficacy (growth inhibition of cells),H1975 cells,+ (+ = 10 to 20%)
same,RB200 Efficacy (growth inhibition of cells),T47D cells,− (− = <10%)
same,RB200 Efficacy (growth inhibition of cells),Calu-6 cells,− (− = <10%)
same,RB200 Efficacy (growth inhibition of cells),SUM149 cells [1],+ (+ = 10 to 20%)
same,RB200 Efficacy (growth inhibition of cells),HCC4006 cells,− (− = <10%)
same,RB200 Efficacy (growth inhibition of cells),N-87 cells,− (− = <10%)
same,RB200 Efficacy (growth inhibition of cells),SK-BR-3 cells,+++ (+++ = 31 to 50% growth inhibition of cells by RB200)
same,RB200 Efficacy (growth inhibition of cells),ZR-75-1 cells,+ (+ = 10 to 20%)
same,RB200 Efficacy (growth inhibition of cells),A549 cells,++ (++ = 21 to 30%)
same,effect on EGF-stimulated proliferation,SUM149 cells [2],completely blocked
same,effect on LPA stimulated proliferation,SUM149 cells [2],completely blocked
same,binding of 125I-HRG,heregulin (HRG),binds
